Laboratory results as given in ChEMBL document CHEMBL1131042, “beta-Lactam derivatives as inhibitors of human cytomegalovirus protease” (J Med Chem, 1998).

Molecular target: Chymotrypsinogen A (Bos taurus, UniProt P00766)
Assay: Compound was tested for its activity against bovine pancreatic Alpha-chymotrypsin (BPC)

SMILES	IC50
C[C@H]1C(=O)N(C(=O)NCc2ccncc2)[C@H]1Cc1ccccc1	16 µM
C[C@@H]1C(=O)N(C(=O)NCc2ccncc2)[C@H]1Cc1ccccc1	> 75 µM
